Molecules are shown by their SMILES.

Sequences of proteins named here, by UniProt entry; tags and fusion partners are left off. A change or cut given only in a name is not applied to a line headed by its entry.
UniProt Q06187: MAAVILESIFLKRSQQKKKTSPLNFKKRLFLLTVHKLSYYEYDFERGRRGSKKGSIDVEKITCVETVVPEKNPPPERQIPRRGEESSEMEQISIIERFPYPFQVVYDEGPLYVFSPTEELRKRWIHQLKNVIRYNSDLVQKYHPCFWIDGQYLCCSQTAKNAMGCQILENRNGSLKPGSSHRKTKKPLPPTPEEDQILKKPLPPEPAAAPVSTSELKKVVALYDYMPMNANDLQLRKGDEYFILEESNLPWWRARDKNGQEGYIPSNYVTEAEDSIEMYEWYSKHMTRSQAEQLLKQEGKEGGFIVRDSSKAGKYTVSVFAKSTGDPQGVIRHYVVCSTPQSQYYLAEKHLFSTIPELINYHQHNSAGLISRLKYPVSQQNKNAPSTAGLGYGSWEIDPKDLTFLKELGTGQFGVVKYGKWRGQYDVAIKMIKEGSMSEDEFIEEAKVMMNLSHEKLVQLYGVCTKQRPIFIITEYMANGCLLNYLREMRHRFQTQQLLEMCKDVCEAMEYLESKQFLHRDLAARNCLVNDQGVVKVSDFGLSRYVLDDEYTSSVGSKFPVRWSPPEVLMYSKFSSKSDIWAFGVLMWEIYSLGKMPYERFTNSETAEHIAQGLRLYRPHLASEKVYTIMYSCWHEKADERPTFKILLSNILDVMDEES

These results are taken from patent publication US9532990B2 (Zhejiang DTRM Biopharma Co. Ltd., priority 2014, dated 2017).

The target in one test is BTK wild type (Homo sapiens (Human), UniProt Q06187). Put plainly: Inhibition assay of BTK kinase activity (HTRF). The test is classed as biochemical. Conditions: all compounds with IC50 of less 10 nM; read-out: IC50 (BTK). A general note: In TR-FRET formats the signal depends on donor and acceptor labels being close together.
In general, IC50 refers to the concentration at which inhibition is half-maximal. For `C=CC(=O)N1CCC(n2nc(-c3ccc(Oc4c(F)c(F)cc(F)c4F)cc3F)c3c(N)ncnc32)C1` (stereo not shown) [Compound 23, 1-(3-(4-amino-3-(2-fluoro-4-(2,3,5,6-tetrafluorophenoxy)phenyl)-1H-pyrazolo[3,4-d]pyrimidin-1-yl)pyrrolidin-1-yl)prop-2-en-1-one], the half-inhibitory concentration (IC50) was < 10 nM.
With `C=CC(=O)N1CC[C@@H](n2nc(-c3ccc(Oc4c(F)c(F)cc(F)c4F)cc3F)c3c(N)ncnc32)C1` [Compound 45, 1-((R)-3-(4-amino-3-(2-fluoro-4-(2,3,5,6-tetrafluorophenoxy)phenyl)-1H-pyrazolo[3,4-d]pyrimidin-1-yl)pyrrolidin-1-yl)prop-2-en-1-one], the IC50 was < 10 nM.
As for `C=CC(=O)N1CC[C@@H](n2nc(-c3ccc(C(=O)c4cccc(F)c4)cc3F)c3c(N)ncnc32)C1` [Compound 73, 1-((R)-3-(4-amino-3-(2-fluoro-4-(3-fluorobenzoyl)phenyl)-1H-pyrazolo[3,4-d]pyrimidin-1-yl)pyrrolidin-1-yl)prop-2-en-1-one], the IC50 was < 10 nM.
Take `[2H]/C=C/C(=O)N1CC[C@@H](n2nc(-c3ccc(Oc4c(F)c(F)cc(F)c4F)cc3F)c3c(N)ncnc32)C1` [Compound 120, (E)-1-((R)-3-(4-amino-3-(2-fluoro-4-(2,3,5,6-tetrafluorophenoxy)phenyl)-1H-pyrrolo[2,3-d]pyrimidin-1-yl)pyrrolidin-1-yl)-3-deuterium-prop-2-en-1-one]: the IC50 is < 10 nM.
For `[2H]/C=C\C(=O)N1CC[C@@H](n2nc(-c3ccc(Oc4c(F)c(F)cc(F)c4F)cc3F)c3c(N)ncnc32)C1` [Compound 121, (Z)-1-((R)-3-(4-amino-3-(2-fluoro-4-(2,3,5,6-tetrafluorophenoxy)phenyl)-1H-pyrrolo[2,3-d]pyrimidin-1-yl)pyrrolidin-1-yl)-3-deuterium-prop-2-en-1-one], the concentration for half-maximal inhibition (IC50) was < 10 nM.

The same test, now with this note: read-out: BTK IC50.
On to `C=CC(=O)N1CCCC(n2nc(-c3ccc(C(=O)c4cccc(F)c4)cc3F)c3c(N)ncnc32)C1` (stereo not shown) [Compound 5, 1-(3-(4-amino-3-(2-fluoro-4-(3-fluorobenzoyl)phenyl)-1H-pyrazolo[3,4-d]pyrimidin-1-yl)piperidin-1-yl)prop-2-en-1-one], for which the IC50 is 2 nM.
Still for that read-out and setting: the figure for `Nc1ncnc2c1c(-c1ccc(Oc3c(F)c(F)cc(F)c3F)cc1F)nn2C1CCC(N2C(=O)C=CC2=O)CC1` (stereo not shown) [Compound 35, 1-(4-(4-amino-3-(2-fluoro-4-(2,3,5,6-tetrafluorophenoxy)phenyl)-1H-pyrazolo[3,4-d]pyrimidin-1-yl)cyclohexyl)-1H-pyrrole-2,5-dione] is 81 nM.
Same read-out and setting: next, `C=CC(=O)N1CC[C@H](n2nc(-c3ccc(Oc4c(F)c(F)cc(F)c4F)cc3F)c3c(N)ncnc32)C1` [Compound 46, 1-((S)-3-(4-amino-3-(2-fluoro-4-(2,3,5,6-tetrafluorophenoxy)phenyl)-1H-pyrazolo[3,4-d]pyrimidin-1-yl)pyrrolidin-1-yl)prop-2-en-1-one]: 21 nM; `CNC(=N)N1CCCC(n2nc(-c3ccc(Oc4c(F)c(F)cc(F)c4F)cc3F)c3c(N)ncnc32)C1` (stereo not shown) [Compound 53, 3-[4-amino-3-[2-fluoro-4-(2,3,5,6-fluorophenoxy)phenyl]-1H-pyrazolo[3,4-d]pyrimidine-1-yl]piperidine-1-carboxamidine]: 1650 nM.
Consider `C=CC(=O)N1CC[C@@H](n2nc(-c3ccc(C(=O)c4ccc(F)cc4)cc3F)c3c(N)ncnc32)C1` [Compound 71, 1-((R)-3-(4-amino-3-(2-fluoro-4-(4-fluorobenzoyl)phenyl)-1H-pyrazolo[3,4-d]pyrimidin-1-yl)pyrrolidin-1-yl)prop-2-en-1-one], for which the half-inhibitory concentration (IC50) is 6 nM.
